# Reference: PubChem BioAssay (NCI)
# “And” between values parts separate entries of the source, which are not always exact repeats. Identical values can stand only once. The list shows a part of the results, in another mix than the full data. The source made the active and inactive calls. Rule as the data show it: active = growth inhibition above about 70%; inactive = the rest.
# Tests used:
# [1] = NCI Yeast Anticancer Drug Screen. Data for the rad50 strain (AID 155);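 also: 0% = growth of vehicle-only cultures of the same strain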; conditions: S. cerevisiae rad50 strain growth inhibition; at 50.0 µM; hits give high values
# [2] = NCI Yeast Anticancer Drug Screen. Data for the mec2-1 strain (AID 157); conditions: S. cerevisiae mec2-1 strain, at 50.0 µM, hits give high values
# [3] = NCI Yeast Anticancer Drug Screen. Data for the sgs1 mgt1 strain (AID 161);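 also: 0% = growth of cultures given vehicle only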; conditions: S. cerevisiae sgs1 mgt1 strain, at 50.0 µM, hits give high values
# [4] = NCI Yeast Anticancer Drug Screen. Data for the cln2 rad14 strain (AID 165);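 also: 0% = growth equal to vehicle treated cultures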; conditions: S. cerevisiae cln2 rad14 strain, at 50.0 µM, hits give high values
# [5] = NCI Yeast Anticancer Drug Screen. Data for the bub3 strain (AID 167); conditions: S. cerevisiae bub3 mutant strain, at 50.0 µM, hits give high values
# [6] = NCI Yeast Anticancer Drug Screen. Data for the mlh1 rad18 strain (AID 175); conditions: S. cerevisiae mlh1 rad18 strain growth inhibition; at 50.0 µM; hits give high values
SMILES,growth inhibition [1],growth inhibition [2],growth inhibition [3],growth inhibition [4],growth inhibition [5],growth inhibition [6]
NCCc1ccc(N(CCCl)CCCl)cc1,inactive: 8.5%,inactive: 35.8%,inactive: -4.1%,inactive: -2.35%,inactive: 7.6%,inactive: 15.6%
Nc1ccc(P(=O)(Nc2ccccn2)Nc2ccccn2)cc1,inactive: -5%,inactive: 6.3%,inactive: 3.45%,inactive: -19.6%,inactive: 15.8%,inactive: 12.2%
O=C1NC(=O)C2(CC3CCCC(C2)N3CCCl)N1 (stereo not given),inactive: -17.7%,inactive: -22%,inactive: -18.9%,inactive: 7.55%,inactive: -23.6%,inactive: -16.1%
Cc1c([N+](=O)[O-])c([N+](=O)[O-])c(CCn2cnc3c(N(CCO)CCO)ncnc32)c([N+](=O)[O-])c1[N+](=O)[O-],inactive: 21.7%,inactive: 1.1%,inactive: 3.75%,inactive: 2%,inactive: 4.7%,inactive: 14.8%
CCC(=O)C(CCN(C)C)(c1ccccc1)c1ccccc1,inactive: -5.1%,inactive: 17.8%,inactive: 4.65%,inactive: -5.6%,inactive: -0.9%,inactive: 34.6%
CCOP(=O)(OCC)OP1OCC(C)(C)CO1,inactive: -25.4%,inactive: -29.9%,inactive: -27.9%,inactive: -1.8%,inactive: -49.5%,inactive: -24.6%
O=[N+]([O-])c1cc2nc(Cl)[nH]c2cc1[N+](=O)[O-],inactive: -7.35%,inactive: -6.45%,inactive: -1.05%,inactive: -7.75%,inactive: -16.4%,inactive: 7.8%
CCCCOP(O)OCCCC,inactive: 22.6%,inactive: 6.45%,inactive: 5.35%,inactive: 13.6%,inactive: -8.45%,inactive: 21.4%
Cc1cccc(OP(=S)(Cl)Oc2cccc(C)c2)c1,inactive: 35%,inactive: 49.2%,inactive: 13.9%,inactive: 11.7%,inactive: 7.65%,inactive: 12.9%
CCCCOP(OCCCC)OCCCC,inactive: -12.4%,inactive: -33%,inactive: -16.9%,inactive: 3.3%,inactive: 0.75%,inactive: -11.7%
CC(C)NC(C)C,inactive: 2%,inactive: -11.3%,inactive: 1.55%,inactive: -4.35%,inactive: -4.05%,inactive: 3.8%
CCCCCCCCCC(=O)OCC(COP(=O)(Oc1ccccc1)N(CCCl)CCCl)OC(=O)CCCCCCCCC (stereo not given),inactive: 15.3%,inactive: 12.1%,inactive: 2.95%,inactive: 8.95%,inactive: 6.3%,inactive: 7%
CCN(CC)CC(O)c1ccc2c(ccc3ccccc32)c1 (stereo not given),inactive: 36%,inactive: 9.25%,inactive: 23.6%,inactive: 5.15%,inactive: 2.55%,inactive: 29.5%
BrCCN(CCBr)c1ccc2ccccc2c1,inactive: 40.9%,inactive: 11.4%,inactive: 44.1%,inactive: 42.8%,inactive: 6.15%,active: 78.3%
C=CS(=O)(=O)C=C,inactive: 12.7% and inactive: 11.9%,inactive: -1.55% and inactive: 25.9%,inactive: 16.8% and inactive: -0.5%,inactive: 10.8% and inactive: 49%,inactive: 21.9% and inactive: 35.4%,inactive: 3.7% and inactive: 28.1%
NC(=O)N/N=C/c1ccc(N(CCCl)CCCl)cc1,inactive: -5.6%,inactive: -2.8%,inactive: 4.35%,inactive: 8.25%,inactive: 3.85%,inactive: 0.25%
C[N+](CCBr)(CCBr)Cc1ccccc1[N+](=O)[O-],inactive: 3.3%,inactive: -13.8%,inactive: 4.35%,inactive: -27.4%,inactive: -8.2%,inactive: -0.65%
CCOP1(=O)N=C(/N=C(\N)N(CC)CC)N(C)C1(C)C (stereo not given),inactive: -33.9%,inactive: 4.35%,inactive: -39.4%,inactive: -15.2%,inactive: -4.8%,inactive: -49.5%
NC1=NCCN1[N+](=O)[O-],inactive: -4.7% and inactive: 12.7% and inactive: -1.25%,inactive: -4.35% and inactive: 6.8% and inactive: -2.85%,inactive: 2.1% and inactive: -15.6% and inactive: 1%,inactive: -24.6% and inactive: 2.25% and inactive: 1.7%,inactive: 15.2% and inactive: 4.3% and inactive: -2.05%,inactive: 5.3% and inactive: 5.05% and inactive: 0.95%
CCCCC(CC)COP(O)OCC(CC)CCCC (stereo not given),inactive: 10.8%,inactive: -7.8%,inactive: 1.4%,inactive: -53.8%,inactive: -2.9%,inactive: 23.3%
